The entries are a selection whose mix differs from that of the whole data set. Calls of active or inactive are those of the source. No stated cut-off is given here; in the data, active means inhibition above about 80%; inactive means the rest.

Sequences of proteins named here, by UniProt entry; tags and fusion partners are left off.
UniProt P34913, whole entry, looked up: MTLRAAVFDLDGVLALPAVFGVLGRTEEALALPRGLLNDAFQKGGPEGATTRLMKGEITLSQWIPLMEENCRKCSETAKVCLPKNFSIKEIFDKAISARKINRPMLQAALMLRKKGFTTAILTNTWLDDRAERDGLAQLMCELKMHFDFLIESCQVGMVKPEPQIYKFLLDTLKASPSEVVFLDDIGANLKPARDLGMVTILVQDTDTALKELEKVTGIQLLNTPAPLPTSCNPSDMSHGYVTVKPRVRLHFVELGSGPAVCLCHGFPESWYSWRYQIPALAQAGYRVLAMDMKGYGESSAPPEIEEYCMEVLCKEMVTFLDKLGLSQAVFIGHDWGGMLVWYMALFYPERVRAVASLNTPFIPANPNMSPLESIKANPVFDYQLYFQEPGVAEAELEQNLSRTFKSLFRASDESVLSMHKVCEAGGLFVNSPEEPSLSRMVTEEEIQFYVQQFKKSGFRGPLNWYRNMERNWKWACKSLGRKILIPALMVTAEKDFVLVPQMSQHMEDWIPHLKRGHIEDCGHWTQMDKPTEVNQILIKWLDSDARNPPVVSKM

For orientation: inhibition means the relative decrease from the control value, in per cent.

For this experiment, the target named is Bifunctional epoxide hydrolase 2 (Homo sapiens) (UniProt P34913). The experiment is described as follows: soluble epoxide hydrolase inhibitors, primary screen, biochemical, human sEH (AID 707). The following applies: recombinant human sEH enzymatic activity assay; at 2 µM; hits give high values.
`CC1CCN(C(=O)Oc2c(Cl)cc(Cl)c3cccnc23)CC1`: the inhibition is inactive: 8.3%.
For the compound `CC(=O)N1C2C3N(C(C)=O)C1C1N(C(C)=O)C(C(N1C(C)=O)N3C(C)=O)N2C(C)=O`, the inhibition was inactive: -12.2%.
Consider `O=[N+]([O-])c1cccc2n[nH]nc12`, for which the inhibition is inactive: -3.4%.
Turning to `CCc1nc2c(n1)c1c(non1O)c1c2no[n+]1[O-]`, the inhibition was inactive: 11.1%.
As to `CCOP(=O)(Nc1ccccc1)OCC`, the inhibition is inactive: 8.8%.
For `CC(C)CC(=O)NC(Sc1ccc(Cl)cc1)C(Cl)(Cl)Cl` (configuration not stated) the value was inactive: -2%; for `Cc1c2non([O-])c-2c(C)[n+](=O)[n+]1[O-]`, inactive: 4.2%; for `Oc1ccccc1CNc1ccccn1`, inactive: 15.7%.
On to `CN1CCCC(OC(=O)C(c2ccccc2)c2ccccc2)C1` (configuration not stated), for which the inhibition was inactive: 8%.
For `COC(=O)c1cc2c(s1)N=C(c1ccccc1)N(C)P2(=O)N1CCOCC1` (configuration not stated) the value was inactive: 5%; for `CCC(=O)N1C2C3N(C(=O)CC)C1C1N(C(=O)CC)C(C(N1C(=O)CC)N3C(=O)CC)N2C(=O)CC`, inactive: 0.6%.
`CCOC(=O)NC(Sc1ccccc1)C(Cl)(Cl)Cl` (configuration not stated): the inhibition was inactive: 0.6%.
Consider `O=P(Nc1nccs1)(c1ccccc1)c1ccccc1`, for which the inhibition is inactive: 5.3%.
Then `c1nnnn1CCn1cnnn1`, with inactive: 3.5%.
For `CC1(CBr)Cn2c(nc3ccccc3c2=O)S1` (configuration not stated) the value was inactive: -6.8%; for `O=P1(Nc2ccccn2)COc2ccccc2OC1`, inactive: 6.7%; for `Clc1n[nH]nc1-c1nn[nH][15n]1`, inactive: 6.9%.
Then `O=P1(Nc2ncccn2)COc2ccccc2OC1`, with inactive: 3.6%; and `Cc1ccc(OCC(=O)OC2CN3CCC2CC3)cc1` (configuration not stated), with inactive: 20.7%.
With `Cc1nn(-c2ccccc2)c2c1P(=O)(N1CCOCC1)N(C)C(c1ccccc1)=N2` (configuration not stated), the inhibition is inactive: -14.9%.
For `O=[N+]([O-])c1ccc2c(c1)nnn2O` the value was inactive: 3%.
For `CCOP1(=S)c2c(C)nn(CCC#N)c2N=C(c2ccc(F)cc2)N1C` (configuration not stated) the value was inactive: -3.9%; for `Cc1cccc(OCC(=O)OC2CN3CCC2CC3)c1` (configuration not stated), inactive: -3.1%; for `ClCCSc1nnc(-c2cccnc2)o1`, inactive: 13.5%.
Regarding `CCN(CC)C(=S)SC(NC=O)C(Cl)(Cl)Cl` (configuration not stated), the inhibition is inactive: 11.3%.
With `CCC(C)N(CC(C)C)C(=S)SC(NC(C)=O)C(Cl)(Cl)Cl` (configuration not stated), the inhibition is inactive: 1.4%.
`COP1(=S)c2c(C)nn(CCC#N)c2N=C(c2ccc(F)cc2)N1C` (configuration not stated): the inhibition is inactive: 2.1%.

(Values after PubChem BioAssay AID707 (Columbia University Molecular Screening Center, 2007).)
